The values that follow come from patent US7271168B2, “Piperazine derivatives having SST1 antagonistic activity” (Novartis AG, priority 2001, dated 2007).

Protein sequences, listed by entry. Tags and fused reporters are not part of them. Lines headed by an entry give the natural chain unless they say otherwise; changes in a name come on top.
UniProt P30872: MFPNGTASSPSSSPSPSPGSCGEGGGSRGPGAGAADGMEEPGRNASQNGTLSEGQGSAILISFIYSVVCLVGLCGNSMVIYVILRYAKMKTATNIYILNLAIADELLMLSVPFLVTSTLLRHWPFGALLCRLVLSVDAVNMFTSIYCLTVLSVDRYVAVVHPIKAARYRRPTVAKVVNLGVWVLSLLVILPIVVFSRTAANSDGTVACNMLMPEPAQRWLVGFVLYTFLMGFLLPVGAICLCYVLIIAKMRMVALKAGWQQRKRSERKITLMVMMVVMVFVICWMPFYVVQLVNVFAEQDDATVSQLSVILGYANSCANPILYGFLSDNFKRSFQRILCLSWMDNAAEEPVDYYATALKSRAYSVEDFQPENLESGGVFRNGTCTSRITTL

This test addresses Somatostatin sst1 receptors (Homo sapiens, UniProt P30872).

In the case of `CN(CCC(=O)N1CCN(c2ccc(F)c(F)c2)CC1)CCC1c2ccccc2Oc2ccccc21` [Compound A, 1-[4-(3,4-difluoro-phenyl)-piperazin-1-yl]-3-{methyl-[2-(9H-xanthen-9-yl)-ethyl]-amino}-propan-1-one], the “selectivity among somatostatin receptors” value was “sst1 selective”.
